Our source for the EC50 values is ChEMBL document CHEMBL4725320 (Bioorg Med Chem Lett, 2020).

The target of the test is T1, Nuclear receptor subfamily 1 group D member 1 (Homo sapiens, UniProt P20393).
T1 sequence (P20393 whole entry): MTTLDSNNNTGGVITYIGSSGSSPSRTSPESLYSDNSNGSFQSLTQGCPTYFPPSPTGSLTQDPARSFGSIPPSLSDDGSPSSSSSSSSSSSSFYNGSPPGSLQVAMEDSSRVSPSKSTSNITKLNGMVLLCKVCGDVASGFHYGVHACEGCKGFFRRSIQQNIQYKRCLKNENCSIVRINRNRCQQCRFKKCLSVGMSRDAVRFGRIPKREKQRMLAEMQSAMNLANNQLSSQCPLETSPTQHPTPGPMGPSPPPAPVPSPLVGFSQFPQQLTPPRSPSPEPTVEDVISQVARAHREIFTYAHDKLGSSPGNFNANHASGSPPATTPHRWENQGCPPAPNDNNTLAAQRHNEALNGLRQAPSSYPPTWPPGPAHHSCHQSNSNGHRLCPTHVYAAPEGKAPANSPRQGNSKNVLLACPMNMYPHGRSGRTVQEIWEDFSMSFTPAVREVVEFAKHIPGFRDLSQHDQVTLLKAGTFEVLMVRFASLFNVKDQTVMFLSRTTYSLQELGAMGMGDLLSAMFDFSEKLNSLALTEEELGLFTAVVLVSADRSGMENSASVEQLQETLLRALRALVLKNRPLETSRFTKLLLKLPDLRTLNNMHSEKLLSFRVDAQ
Briefly: Agonist activity at Rev-Erb alpha (unknown origin) by FRET assay. It is filed as single protein.

Compound `CCOC(=O)N1CCC(CN(Cc2ccc(Cl)cc2)Cc2ccc([N+](=O)[O-])s2)C1` (stereo unspecified) [SR9009] registered an EC50 of 0.62 µM. In other words, the sub-micromolar range.

As a reminder, the EC50 is the midpoint of the concentration-response curve. Read a low EC50 as higher potency in that assay.
